Test results taken from PubChem BioAssay AID1347055 (National Center for Advancing Translational Sciences (NCATS), 2019).
This is a selection; strong and weak results do not stand in their true shares. Some of these compounds have results that are not shown, active ones among them. Inconclusive results are not listed. Active and inactive are the calls of the source. Calls come from the whole dose curve; as a rule, active = well fitted inhibition curve with a large enough effect; inconclusive = small, poorly fitted or top-dose-only effect, or effect the other way; inactive = flat fitted curve, though single readings scatter.
% is set by controls: 0 for no effect and ±100 for the full control effect.
Note: the screen sought activators but most active calls are inhibition curves; nearly all actives have a fitted effect of over 45% in size.

Sequences of proteins named here, by UniProt entry; tags and fusion partners are left off.
UniProt P07954, whole entry: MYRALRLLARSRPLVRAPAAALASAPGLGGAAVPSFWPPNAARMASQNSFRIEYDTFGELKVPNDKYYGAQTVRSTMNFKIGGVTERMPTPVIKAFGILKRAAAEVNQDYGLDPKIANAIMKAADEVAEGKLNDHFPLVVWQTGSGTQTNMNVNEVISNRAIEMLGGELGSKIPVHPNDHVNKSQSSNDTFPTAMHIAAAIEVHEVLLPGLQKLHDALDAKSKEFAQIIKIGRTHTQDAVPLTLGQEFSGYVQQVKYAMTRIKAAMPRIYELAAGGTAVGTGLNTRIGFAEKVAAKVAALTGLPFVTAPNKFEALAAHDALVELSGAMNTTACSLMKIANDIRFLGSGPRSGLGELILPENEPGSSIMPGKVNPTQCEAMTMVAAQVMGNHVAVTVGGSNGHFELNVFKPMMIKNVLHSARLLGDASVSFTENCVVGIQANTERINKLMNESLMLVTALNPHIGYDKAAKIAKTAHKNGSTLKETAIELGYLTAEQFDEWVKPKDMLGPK

What follows are compounds tested against Fumarate hydratase, mitochondrial (Homo sapiens) (UniProt P07954) (assay: Identification of activators of human fumarate hydratase by quantitative high-throughput screening). Settings: FH coupled MDH/diaphorase resazurin fluorescence, 15 min; at 79.9 µM (top of the series).
Excerpt: Fumarate hydratase (FH) is a metabolic enzyme that is part of the Krebs-cycle, and reversibly catalyzes the hydration of fumarate to malate. Mutations of the FH gene have been associated with fumarate hydratase deficiency (FHD), hereditary leiomyomatosis, renal cell cancer (HLRCC), and other diseases. Currently there are no high-quality small molecule probes for studying human fumarate hydratase. To address this, we developed a quantitative high throughput screening (qHTS) FH assay and screened a total of 57,037 compounds in dose-response. While no inhibitors of FH were confirmed, a series of phenyl-pyrrolo-pyrimidine-diones (12 compounds) were identified as activators of human fumarate hydratase. […] The binding of two compounds from the series to human fumarate hydratase was confirmed by microscale thermophoresis. The low hit rate in this screening campaign confirmed that FH is a "tough target" to modulate, and the small molecule activators of human fumarate hydratase reported here may serve as a starting point for further optimization and development into cellular probes of human FH and potential drug candidates.
For primary high-throughput screen, 3 ul of FH solution (containing 13.33nM human fumarate hydratase, 13.33IU/ml malic dehydrogenase, 0.2mM NAD, 0.067mg/ml diaphorase and 0.067mM resazurin in the assay buffer (50 mM Tris pH 8.0, 5 mM MgCl2, 0.01% Brij 3) was dispensed into each well in a black solid bottom 1536-well assay plate (Greiner Bio-One) using a BioRAPTR FRD dispenser (Beckman Coulter, Brea, CA). A 1536-well pintool dispenser outfitted with 20 nl pins (Wako Automation, San Diego, CA) was used to transfer 20 nL of DMSO-solubilized compound (Cherrypick plates) to each 1536-well assay plate. Each compound was screened at five concentrations: 15 nM, 151 nM, 1.5 uM, 15.4 uM, 76.9 uM. Following compound transfer, plates were incubated in room temperature for 10 minutes. 1 uL of substrate solution containing fumaric acid (160 uM) was dispensed via BioRAPTR FRD to initiate the reaction. Plates were immediately transferred to a ViewLux microplate imager (PerkinElmer, Waltham, MA), and any resulting resorufin fluorescence was measured (exitation/emission, 525/598 nm) at 0 and 15 minutes. The exposure time is 1 second. Fluorescence from each well was normalized using enzyme-free and DMSO-treated control wells on each plate, and changes in fluorescence (delta RFU) were calculated using the difference in fluorescent signal for each well at 15 minutes versus 0 minutes.
For `CN(C)C1(CNC(=O)c2ccccc2F)CCCCC1`, the activity change, negative = inhibition was inactive: -4.16%. With `CN(C)C1(CNC(=O)c2cccc(Cl)c2)CCCCC1` the activity change, negative = inhibition was inactive: 4.18%. For `CCOc1cccc(C(=O)NCC2(N(C)C)CCCCC2)c1`, the activity change, negative = inhibition was inactive: -10.5%. `CCCCOc1ccccc1C(=O)NCC1(N(C)C)CCCCC1` was tested, and the activity change, negative = inhibition was inactive: -32.6%. With `CN(C)C1(CNC(=O)c2ccccc2[N+](=O)[O-])CCCCC1` the activity change, negative = inhibition was inactive: 1.38%. `COc1ccc(C(=O)NCC2(N(C)C)CCCCC2)cc1Cl` was tested, and the activity change, negative = inhibition was inactive: -0.847%. With `CC(C)Oc1ccc(C(=O)NCC2(N(C)C)CCCCC2)cc1` the activity change, negative = inhibition was inactive: 5.92%. For `Cc1cccc(C(=O)NCC2(N(C)C)CCCCC2)c1`, the activity change, negative = inhibition was inactive: 7.32%. For `COc1cc(C(=O)NCC2(N(C)C)CCCCC2)cc(OC)c1OC`, the activity change, negative = inhibition was inactive: -11.6%. `CC(C)COc1ccc(C(=O)NCC2(N(C)C)CCCCC2)cc1` was tested, and the activity change, negative = inhibition was inactive: -7.57%. For `COc1cccc(C(=O)NCC2(N3CCOCC3)CCCCC2)c1`, the activity change, negative = inhibition was inactive: -2.84%.
